Earlier results on 1 substance are cited in PMC3810412 (Bioorganic & medicinal chemistry letters, 2013).

Chains of the proteins cited; added tags and fusions are not shown. Lines headed by an entry give the natural chain unless they say otherwise; changes in a name come on top.
UniProt P32300, whole entry: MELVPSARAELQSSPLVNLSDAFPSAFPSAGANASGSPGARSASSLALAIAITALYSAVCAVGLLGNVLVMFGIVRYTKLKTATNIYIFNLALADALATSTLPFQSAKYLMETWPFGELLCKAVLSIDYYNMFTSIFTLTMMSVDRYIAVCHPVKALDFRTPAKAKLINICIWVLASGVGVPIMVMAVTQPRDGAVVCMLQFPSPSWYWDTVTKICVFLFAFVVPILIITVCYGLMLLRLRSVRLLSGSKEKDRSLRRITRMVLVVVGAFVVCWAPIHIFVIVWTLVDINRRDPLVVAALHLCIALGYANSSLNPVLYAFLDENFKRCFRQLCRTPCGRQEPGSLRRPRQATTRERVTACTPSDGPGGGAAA
UniProt P97266, whole entry, looked up: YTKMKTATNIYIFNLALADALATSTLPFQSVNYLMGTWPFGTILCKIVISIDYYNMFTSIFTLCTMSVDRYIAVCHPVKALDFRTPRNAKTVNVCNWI

pIC50: −log10 of the molar value.

What is called pIC50 is the IC50 on a negative log10 scale, so that one unit is a factor of ten.

The target in one series is MVD (δ) (Mus musculus, UniProt P32300). The conditions noted are these: read-out: MVD (δ) opioid agonist IC50; cited from earlier work.
The target of a further series is GPI (μ) (Cavia porcellus, UniProt P97266). The conditions noted are these: read-out: GPI (μ) opioid agonist IC50; cited from earlier work.

Consider Biphalin [reference compound], for which the pIC50 on MVD (δ) was 8.57; at GPI (μ), 8.06.
